These are literature values, as cited in patent publication EP4650002A1 (Ludwig-Maximilians-Universität, priority 2024, dated 2025).

Amino acid sequences for entries named in this document (tags omitted). Residues count along the entry.
UniProt Q9Y466, 155-383 limits assumed: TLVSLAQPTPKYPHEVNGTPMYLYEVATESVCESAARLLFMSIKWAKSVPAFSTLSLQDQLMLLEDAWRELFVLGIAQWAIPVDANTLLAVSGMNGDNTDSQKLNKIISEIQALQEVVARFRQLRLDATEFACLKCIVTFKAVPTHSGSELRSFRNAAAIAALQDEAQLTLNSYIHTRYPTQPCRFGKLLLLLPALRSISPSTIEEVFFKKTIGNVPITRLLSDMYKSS

This data set has as its target human TLX (Homo sapiens, UniProt Q9Y466). The following applies: literature value (Lit. 16 / Lit. 19); in brackets below the EC50; cited from earlier work.

As to `CCCCOc1cc(C(=O)Nc2cc(-n3cnc(C)c3)cc(C(F)(F)F)c2)c2ccccc2n1`, the relative reporter activity is on record as 0.33±0.12.
